Experimental data as given in PubChem BioAssay AID588405 (Sanford-Burnham Center for Chemical Genomics, 2011).
The entries are a selection whose mix differs from that of the whole data set. The source made the active and inactive calls.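 Rule for the calls: active = inhibition of at least 50% at 20 µM; inactive = the rest.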

Assay: inhibition of PEG-3 promoter activity – cell-based, HeLa, luciferase luminescence, primary screen (AID 588405)
Details: HeLa PEG-Prom luciferase reporter, overnight, at 20 µM, active compounds read high
For `O=C(O)CNc1ccc([As](=O)(O)O)cc1`, the inhibition was inactive: -2.95%. With `COC(=O)C1(C)COP(=O)(Nc2ccccc2)OC1` (configuration not stated) the inhibition was inactive: 8.66%. In the case of `O=[N+]([O-])c1cccc(NC2=NCC(CBr)S2)c1` (configuration not stated), the inhibition was inactive: 8.59%. With `O=[N+]([O-])c1ncn(CCn2ncnc2[N+](=O)[O-])n1` the inhibition was inactive: 1.78%. With `CC(C)(C)C(=O)NC(Sc1ccncn1)C(Cl)(Cl)Cl` (configuration not stated) the inhibition was inactive: 6.32%. For `O=C(Nc1cc([As](=O)(O)O)ccc1O)c1ccccc1`, the inhibition was inactive: 3.65%. In the case of `O=P1(N(CCCl)CCCl)OCCCS1` (configuration not stated), the inhibition was inactive: 20.7%. With `CC1CCN(C(=O)Oc2c(Cl)cc(Cl)c3cccnc23)CC1` the inhibition was inactive: -7.77%. For `c1cc(-c2nn[nH]n2)ccc1-c1nn[nH]n1`, the inhibition was inactive: 7.01%. In the case of `CC(C)c1nc(Nc2ccccc2)n(P(=O)(N(C)C)N(C)C)n1`, the inhibition was inactive: 4.74%. With `CC(C)=N/N=C(\N)N[N+](=O)[O-]` the inhibition was inactive: -9.05%. In the case of `CN(C)C(=O)OCCc1n(C)cc[n+]1C`, the inhibition was inactive: 6.44%. With `CCN(/C(=N/P(=O)(N1CCOCC1)N1CCOCC1)N1CCOCC1)c1ccc(OC)cc1` the inhibition was inactive: 12.7%. In the case of `Nc1ccc([As](=O)(O)c2ccc(N)cc2)cc1`, the inhibition was inactive: -52.7%. In the case of `C[N+]1=C2C=CC=CC=C2SC12C([N+](=O)[O-])=CC([N+](=O)[O-])=C[C-]2[N+](=O)[O-]` (configuration not stated), the inhibition was active: 75.8%. In the case of `Cc1ccc(NP(=O)(Oc2ccccc2)Oc2ccccc2)nc1`, the inhibition was inactive: -1.16%. For `CCc1nc2c(n1)c1c(non1O)c1c2no[n+]1[O-]`, the inhibition was inactive: 31.3%. For `O=[N+]([O-])c1cc([N+](=O)[O-])c(CCNc2ccccc2)c([N+](=O)[O-])c1`, the inhibition was inactive: 4.06%. For `O=[N+]([O-])c1cccc2n[nH]nc12`, the inhibition was inactive: 14.5%. For `CC(=O)N1C2C3N(C(C)=O)C1C1N(C(C)=O)C(C(N1C(C)=O)N3C(C)=O)N2C(C)=O`, the inhibition was inactive: 20.9%. In the case of `COc1ccc(C2=NCC(CBr)S2)cc1` (configuration not stated), the inhibition was inactive: -12.1%. For `O=[N+]([O-])C1C(O)C(O)C([N+](=O)[O-])C(O)C1O` (configuration not stated), the inhibition was inactive: 8.27%. With `Oc1ccccc1CNc1ccccn1` the inhibition was inactive: -36.3%. With `O=C(NC(Sc1ccncn1)C(Cl)(Cl)Cl)c1ccccc1` (configuration not stated) the inhibition was inactive: 3.66%. For `Nc1cc(N)c2nonc2c1[N+](=O)[O-]`, the inhibition was inactive: 7.06%. With `CC(C)CC(=O)NC(Sc1ccc(Cl)cc1)C(Cl)(Cl)Cl` (configuration not stated) the inhibition was inactive: 9.45%. For `CN1CCCC(OC(=O)C(c2ccccc2)c2ccccc2)C1` (configuration not stated), the inhibition was inactive: -3.2%. For `Clc1ccc(Cl)c(NC2=NCC(CBr)S2)c1` (configuration not stated), the inhibition was inactive: 3.31%. With `COc1ccccc1OP(=O)(Nc1ccc(C)cn1)Oc1ccccc1OC` the inhibition was inactive: 17%. In the case of `Cc1ccc(OP(=O)(Nc2nccs2)Oc2ccc(C)cc2)cc1`, the inhibition was inactive: 14.3%. With `CN(C(=O)Cc1ccc(Cl)c(Cl)c1)[C@H]1CCCC[C@H]1N1CCCC1` the inhibition was inactive: -9.88%. With `Cc1ccc(N/C(=N/P(=O)(N2CCOCC2)N2CCOCC2)N2CCOCC2)cc1` the inhibition was inactive: 30.2%. In the case of `NC(=O)c1cc([N+](=O)[O-])cc([N+](=O)[O-])c1N`, the inhibition was inactive: 1.26%. With `Nc1cccc2ccc([As](=O)(O)O)cc12` the inhibition was inactive: 12%. For `CCN(N=Nc1nonc1N)c1nonc1N`, the inhibition was inactive: 15.7%. For `Cc1cc(SC(NC(=O)c2ccc(F)cc2)C(Cl)(Cl)Cl)ncn1` (configuration not stated), the inhibition was inactive: 10.2%. With `CCOP(=O)(Nc1ccccc1)OCC` the inhibition was inactive: 2.08%. In the case of `Cc1ccc(NP(=O)(Oc2ccccc2F)Oc2ccccc2F)nc1`, the inhibition was inactive: 5.67%. With `CN(C(=O)Cc1ccc(Cl)c(Cl)c1)[C@H]1CCCC[C@@H]1N1CCCC1` the inhibition was inactive: -10%. In the case of `O=P(Nc1nc2ccc(Cl)cc2s1)(c1ccccc1)c1ccccc1`, the inhibition was inactive: 21.6%. In the case of `CN(C)P(=O)(N(C)C)n1c(Nc2ccccc2)nnc1-c1ccccc1`, the inhibition was inactive: -28.9%. For `CC(=O)Nc1ccc([As](=O)(O)O)cc1`, the inhibition was inactive: 2.05%. With `O=C(O)c1ccccc1[As](=O)(O)O` the inhibition was inactive: 7.39%. For `CCCC1OP(N)(=O)OCC1CC` (configuration not stated), the inhibition was inactive: 6.78%. In the case of `CC(NC(=O)COC(=O)C(O)(c1ccccc1)c1ccccc1)c1ccccc1` (configuration not stated), the inhibition was inactive: 5.38%. In the case of `Cc1ccccc1OP(=O)(Nc1ccccn1)Oc1ccccc1C`, the inhibition was inactive: 18.5%. In the case of `O=c1c2cc([N+](=O)[O-])ccc2[nH]c2c([N+](=O)[O-])cc([N+](=O)[O-])cc12`, the inhibition was active: 104%. For `CN(C)C(=O)Oc1noc2ccccc12`, the inhibition was inactive: 0.67%. For `O=C(OC1CN2CCC1CC2)c1ccccc1` (configuration not stated), the inhibition was inactive: -6.56%. With `CCC(=O)N1C2C3N(C(=O)CC)C1C1N(C(=O)CC)C(C(N1C(=O)CC)N3C(=O)CC)N2C(=O)CC` the inhibition was inactive: 6.36%. With `COC(=O)c1cc2c(s1)N=C(c1ccccc1)N(C)P2(=O)N1CCOCC1` (configuration not stated) the inhibition was inactive: 0.86%. With `CC(=O)NC(SC(=S)N(CC(C)C)CC(C)C)C(Cl)(Cl)Cl` (configuration not stated) the inhibition was inactive: 4.38%. For `Cc1ccc(OP(=O)(Nc2ccccn2)Oc2ccc(C)cc2)cc1`, the inhibition was inactive: 10.1%. In the case of `O=P1(N(CCCl)CCCl)OCCC2CCCCN21` (configuration not stated), the inhibition was inactive: 13.9%. In the case of `c1ccc(-c2nn[nH]n2)c(-c2nn[nH]n2)c1`, the inhibition was inactive: -8.33%. With `Cc1ccc(NP(=O)(Oc2cccc(C)c2)Oc2cccc(C)c2)nc1` the inhibition was inactive: 7.19%. With `CCNC(=S)/N=C(\N)N[N+](=O)[O-]` the inhibition was inactive: 6.28%. For `O=C(NC1CCS(=O)(=O)C1)NP(=S)(Oc1ccccc1)Oc1ccccc1` (configuration not stated), the inhibition was inactive: -4.07%. For `CC(=O)Nc1ccc([As](=O)(O)O)c(O)c1`, the inhibition was inactive: -1.04%. In the case of `CC(=O)Nc1ccc(Oc2c([N+](=O)[O-])cc([N+](=O)[O-])cc2[N+](=O)[O-])cc1`, the inhibition was inactive: 10.9%. In the case of `Cc1ccccc1CN(C)C(=O)COC(=O)C(O)(c1ccccc1)c1ccccc1`, the inhibition was inactive: 4.95%. With `C[C@H]1OP(=O)(Oc2ccccc2)C[C@@H]2O[C@@H]21` (some centres not stated) the inhibition was inactive: 1.53%. In the case of `C[C@@H]1C=CCP(=O)(Oc2ccccc2)O1` (some centres not stated), the inhibition was inactive: -1.28%. In the case of `CC(=O)c1ccc(N2CC2c2ccncc2)cc1` (configuration not stated), the inhibition was inactive: 17.1%. In the case of `N#C/C(=C\c1ccc(N(CCBr)CCBr)cc1)C(N)=O`, the inhibition was active: 68.8%. With `COC(=O)C1(C)COP(=O)(NCc2ccccc2)OC1` (configuration not stated) the inhibition was inactive: 4.14%. With `CC(C)(C)C(=O)NC(Sc1ccccc1)C(Cl)(Cl)Cl` (configuration not stated) the inhibition was inactive: 15.8%. In the case of `CCc1cc(O)c([N+](=O)[O-])c(C)c1[N+](=O)[O-]`, the inhibition was inactive: 7.52%. With `O=P1(Nc2nc3ccc(Cl)cc3s2)COc2ccccc2O1` (configuration not stated) the inhibition was inactive: -44%. With `CCOc1ccc(C2=NCC(CBr)S2)cc1` (configuration not stated) the inhibition was inactive: -6.18%. With `c1nnnn1CCn1cnnn1` the inhibition was inactive: -0.51%. In the case of `CC(C)C(=O)NC(Sc1ccccc1)C(Cl)(Cl)Cl` (configuration not stated), the inhibition was inactive: 1.32%. In the case of `O=P(Nc1nccs1)(c1ccccc1)c1ccccc1`, the inhibition was inactive: 1.01%. For `O=C(OC1CN2CCC1CC2)c1cccc(Cl)c1` (configuration not stated), the inhibition was inactive: 7.07%. In the case of `C(Cc1nn[nH]n1)Cc1nn[nH]n1`, the inhibition was inactive: 4.47%. For `Nc1ccc([As](=O)(O)c2ccc([N+](=O)[O-])cc2)cc1`, the inhibition was inactive: 13.1%. For `O=[As](O)(c1ccccc1)c1ccc(O)cc1`, the inhibition was inactive: -4.58%. In the case of `O=[N+]([O-])c1ccc(O)c(/C=N/Nc2ccc([N+](=O)[O-])cc2[N+](=O)[O-])c1`, the inhibition was active: 56.1%. In the case of `CC(=O)NC(SC(=S)N(C)C)C(Cl)(Cl)Cl` (configuration not stated), the inhibition was inactive: 15.7%. For `O=[N+]([O-])c1ncn(CCn2cnc([N+](=O)[O-])n2)n1`, the inhibition was inactive: -0.3%. In the case of `O=P(Nc1nc2ccccc2s1)(c1ccccc1)c1ccccc1`, the inhibition was inactive: -3.85%. For `C[C@H]1OP(=O)(Oc2ccccc2)[C@H](O)[C@H](O)[C@H]1N=[N+]=[N-]` (some centres not stated), the inhibition was inactive: -3.81%. In the case of `O=P(Nc1ccccn1)(c1ccc(Br)cc1)c1ccc(Br)cc1`, the inhibition was inactive: 18.5%. For `CN(C)C1(CNC(=O)c2ccc(Cl)c(S(N)(=O)=O)c2)CCCCC1`, the inhibition was inactive: 5.6%. With `COc1ccc(N)c([N+](=O)[O-])c1[N+](=O)[O-]` the inhibition was inactive: -8.84%. For `Nc1ccc(CCCCOc2ccccc2)cc1`, the inhibition was inactive: -240%. With `Nc1cccc([As](=O)(O)c2ccccc2)c1` the inhibition was inactive: -0.7%. In the case of `Cc1ccc(OCC(=O)OC2CN3CCC2CC3)cc1` (configuration not stated), the inhibition was inactive: 12.9%. In the case of `O=[As](O)(c1cccs1)c1cccs1`, the inhibition was inactive: 1.66%. In the case of `O=P1(Nc2ccc(Br)cn2)COc2ccccc2OC1`, the inhibition was inactive: 4.52%. For `NS(=O)(=O)c1cccc(NC(=O)COC(=O)C(O)(c2ccccc2)c2ccccc2)c1`, the inhibition was inactive: 7.65%. With `Cc1ccc(S(=O)(=O)N(CCCN)CCCc2c(C)nc(N)[nH]c2=O)cc1` the inhibition was inactive: 4.24%. With `O=P1(Nc2ncccn2)COc2ccccc2OC1` the inhibition was inactive: 4.04%. With `CN(C)C1(CNC(=O)c2ccc(S(C)(=O)=O)cc2)CCCCC1` the inhibition was inactive: -1.49%. In the case of `O=C(/C=C/c1ccccc1)OC1CN2CCC1CC2` (configuration not stated), the inhibition was inactive: -7.81%. With `CCCC1OP(=O)(Nc2ccccc2)OCC1CC` (configuration not stated) the inhibition was inactive: -1.52%. For `Cc1nn(-c2ccccc2)c2c1P(=O)(N1CCOCC1)N(C)C(c1ccccc1)=N2` (configuration not stated), the inhibition was inactive: 13.8%. For `CC1CCC(C(C)C)C(OP(=O)(Nc2ccccn2)c2ccccc2)C1` (configuration not stated), the inhibition was inactive: 20.9%. In the case of `Cc1ccc(C(=O)OC2CN3CCC2CC3)cc1` (configuration not stated), the inhibition was inactive: 6.45%. In the case of `CC(C)/C=N\N=C(\N)N[N+](=O)[O-]`, the inhibition was inactive: 2.76%. For `CN(C(=O)Cc1ccc(Cl)c(Cl)c1)[C@@H]1CCCC[C@H]1N1CCCC1`, the inhibition was inactive: -0.09%. For `CC1(CBr)Cn2c(nc3ccccc3c2=O)S1` (configuration not stated), the inhibition was inactive: 11.2%.
